# Hits are enriched below; roughly 1.6% of the tested compounds scored in any of these assays.
# ARNT TACC3 PPI – disrupts binding between human ARNT and TACC3. AlphaScreen His-ARNT PAS-B/GST-TACC3 binding, luminescence; TACC3 fragment carries E629A point mutation. inhibition, % at 9.99 µM. 390,000 compounds, 0.66% hits;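 active = mean inhibition of replicates at least 50% and at least half of replicates each reaching 50%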;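 also: 0% = complete ARNT plus TACC3 wells and 100% = ARNT alone without TACC3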
# PglD DTNB – inhibitors of Campylobacter jejuni PglD acetyltransferase; purified PglD enzyme, DTNB colorimetric CoA detection; inhibition, % at 12.5 µM; 360,000 compounds, 0.098% hits; AID 602405; in the data active = inhibition above about 16%, passing the limit was not always enough
# Vif inh – HIV Vif inhibition; HEK293T cells, Vif self-association by quenched fluorescence, imaging, 24 h; inhibition, % at 7.49 µM; 340,000 compounds, 0.35% hits; in the data active = inhibition above about 50%, passing the limit was not always enough
# CAL PDZ FP-1 – inhibitors of human CAL PDZ peptide binding; purified CAL PDZ, TMR-peptide fluorescence polarization, 1 h; inhibition, % at 24.9 µM; 300,000 compounds, 0.92% hits; AID 602252;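 active = mean inhibition of at least 30% with at least half of replicates also reaching 30%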;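 also: 0% = DMSO neutral control and 100% = excess unlabeled competitor peptide PRC23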
# CAL PDZ FP-2 – inhibitors of human CAL PDZ peptide binding; Q9HD26; AID 504414; inhibition, % at 20 µM; 330,000 compounds, 0.02% hits; purified CAL PDZ, TMR-peptide fluorescence polarization, 1 h;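 active = highest replicate inhibition of at least 40%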;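 also: plate controls were DMSO neutral control wells for no effect and unlabeled competitor peptide control wells for full effect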
#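 Material: tagged CAL PDZ protein CerCALP, purified; buffer or medium: sodium phosphate/NaCl buffer pH 7.4 with TCEP, IgG, Thesit; also added: fluorescent TMR peptide probe; schedule: 1 h incubation at room temperature before polarization reading; technique: fluorescence polarization from S- and P-plane intensities, G-factor corrected; control set: unlabelled peptide and DMSO controls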
# Yeast UUG start – alters start codon recognition fidelity in yeast. S. cerevisiae UUG-firefly luciferase reporter, luminescence/redox ratio. 350,000 tested, 0.13% active. activity score, % at 18.7 µM. AID 602363;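 active means replicate mean at a twofold rise or more, about +100% in these data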;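 further: firefly luciferase made from a UUG start codon reports start codon fidelity; reporter light over untreated wells divided by growth signal over untreated wells; some hits fall short of that in this replicate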
# An asterisk follows results filed as active; · = not tested or not shown.
1	C/C=C/c1ccc([C@@H]2[C@@H](C#N)N(C(=O)Cc3ccccn3)[C@@H]2CO)cc1
2	C/C=C/c1ccc([C@@H]2[C@H](CO)N(Cc3ccccn3)[C@H]2CNC(=O)CC)cc1
3	C/C=C/c1ccc([C@@H]2[C@@H](CO)N(Cc3ccccn3)[C@H]2CNC(=O)CC)cc1
4	COC1=C(Br)C(=O)c2ncccc2C1=O
5	O=C1C(=O)c2cccnc2-c2ncccc21
6	O=C1c2cccnc2-c2ncccc21
assay / compound	1	2	3	4	5	6
CAL PDZ FP-2	·	·	·	0.2	·	-1.2
ARNT TACC3 PPI	45.8*	30.0*	3.3	47.4*	·	29.4
Yeast UUG start	-0.7	-24.0	-17.3	·	·	-16.2
Vif inh	·	·	·	-1.7	78.0*	-5.6
CAL PDZ FP-1	·	·	·	-4.3	·	-3.7
PglD DTNB	-6.1	2.5	-0.1	·	·	-2.2

7	Cc1noc(C)c1NC(=O)Nc1cccc2c1O[C@@H](CN(C)C(=O)Nc1ccc(F)cc1)[C@H](C)CN([C@@H](C)CO)C2=O
8	COc1ccc(C(=O)COC(=O)/C=C/c2ccco2)cc1F
9	O=C(/C=C/c1ccco1)OCC(=O)c1cccc([N+](=O)[O-])c1
10	Cc1ccccc1N(C(=O)Cn1nnc(-c2ccc(F)cc2)n1)C(C(=O)NC(C)(C)C)c1ccncc1 (stereo not drawn)
11	CC(C)(C)NC(=O)C(c1ccncc1)N(C(=O)Cn1nnc(-c2ccc(F)cc2)n1)c1ccccc1F (stereo not drawn)
12	CS(=O)(=O)Nc1ccc2c(c1)[C@H]1C[C@@H](CC(=O)NCc3ccc(Cl)cc3)O[C@@H](CO)[C@H]1O2
assay / compound	7	8	9	10	11	12
CAL PDZ FP-2	·	-1.0	-3.5	-0.3	-0.7	·
ARNT TACC3 PPI	·	0.8	-0.7	·	-2.1	-1.9
Yeast UUG start	12.8	2.5	-13.3	-12.7	·	·
Vif inh	·	-8.1	1.0	-3.5	60.5*	·
CAL PDZ FP-1	·	64.5*	-1.1	-5.0	2.0	·
PglD DTNB	·	1.4	3.7	5.1	·	1.2

13	O=C(CN1CCN(CC(=O)Nc2cccc(F)c2)CC1)Nc1ccc(-c2ccccc2)cc1
14	O=C(Nc1cccc(F)c1)N1CCN(C/C=C/c2ccccc2)CC1
15	O=C(Nc1ccc(F)cc1)N1CCN(C/C=C/c2ccccc2)CC1
16	CCCNC(=O)C[C@@H]1CC[C@@H]2[C@H](COC[C@H](O)CN2C(=O)Nc2cccc(Cl)c2)O1
17	C[C@@H]1CCCCO[C@H](CN(C)C(=O)Nc2ccccc2)[C@@H](C)CN([C@@H](C)CO)C(=O)c2cc(NS(=O)(=O)c3cccs3)ccc2O1
18	C[C@@H]1CCCCO[C@@H](CN(C)Cc2ccccc2)[C@@H](C)CN([C@H](C)CO)C(=O)c2cc(NC(=O)CCCN(C)C)ccc2O1
assay / compound	13	14	15	16	17	18
CAL PDZ FP-2	-1.0	-1.1	-2.7	·	·	·
ARNT TACC3 PPI	-0.9	1.5	2.5	-1.8	-1.6	1.8
Yeast UUG start	43.5	-15.4	-16.0	·	7.6	0.5
Vif inh	7.3	-6.6	-1.1	·	·	·
CAL PDZ FP-1	58.3*	38.9*	-0.3	·	·	·
PglD DTNB	1.3	2.6	-4.5	-0.5	2.4	5.0

19	CCN(CC)c1ccc(/C=C2/C(=O)ON=C2C)cc1
20	CCN(CC)c1ccc(/C=C2\C(=O)N(c3nnc(C)c(=O)[nH]3)N=C2C)cc1
21	Cc1ccccc1S(=O)(=O)N1C[C@@H](O)COC[C@@H]2O[C@@H](CC(=O)N3CCN(C)CC3)CC[C@H]21
22	O=C1CC(c2ccc(O)cc2)Oc2ccccc21 (stereo not drawn)
23	CN1CC(c2ccccc2)Oc2ccccc2C1=S (stereo not drawn)
24	CCCC(C)NC(=O)CSc1nnc(-c2c[nH]c3ccccc23)o1 (stereo not drawn)
assay / compound	19	20	21	22	23	24
CAL PDZ FP-2	-2.0	0.3	·	-3.3	-0.1	-2.4
ARNT TACC3 PPI	4.3	60.4*	-0.9	-2.6	4.9	-14.7
Yeast UUG start	·	-8.7	-2.8	15.9	·	·
Vif inh	-1.5	-17.2	·	-8.2	-0.7	-6.0
CAL PDZ FP-1	-3.7	-3.6	·	7.4	66.6*	46.4*
PglD DTNB	·	1.0	-1.4	1.8	·	·

25	CC(C)(C)NC(=O)CSc1nnc(-c2c[nH]c3ccccc23)o1
26	CO[C@H]1CN(C)C(=O)c2cc(NC(=O)c3cccc(F)c3)ccc2OC[C@H](C)NC[C@H]1C
27	CCOC(=O)/C(C#N)=C1/C=CN(c2ccc(C)cc2)C=N1
28	CCOC(=O)/C(C#N)=C1/SC(CC)C(=O)N1c1ccc(C)cc1 (stereo not drawn)
29	COc1ccccc1-c1nnc2n1N=C(C)CS2
30	CC(C)(C)C1=Nn2c(nnc2-c2ccccn2)SC1
assay / compound	25	26	27	28	29	30
CAL PDZ FP-2	-2.0	·	-3.0	-0.5	·	-2.6
ARNT TACC3 PPI	-9.7	-7.6	1.5	-28.8	-3.3	72.3*
Yeast UUG start	4.8	-6.2	-11.6	-40.5	-9.6	-8.4
Vif inh	-3.3	·	4.4	4.7	10.3	-1.5
CAL PDZ FP-1	-4.4	·	0.6	55.8*	0.2	-2.0
PglD DTNB	-0.6	0.5	-5.9	-5.5	0.3	·

31	COc1ccc(C2=Nn3c(nnc3-c3ccc(OC)cc3)SC2)cc1
32	COc1ccc(C2=Nn3c(nnc3-c3ccccn3)SC2)cc1OC
33	COc1ccc(C2=Nn3c(nnc3-c3ccco3)SC2)cc1OC
34	COc1ccc(C2=Nn3c(nnc3-c3ccccc3OC)SC2)cc1OC
35	CO[C@@H]1CN(C)C(=O)c2cc(NC(=O)c3cc(C)on3)ccc2OC[C@@H](C)N(C(=O)C2CC2)C[C@@H]1C
36	C[C@H](CO)N1C[C@H](C)[C@H](CN(C)Cc2ccc(C(F)(F)F)cc2)Oc2ccc(NC(=O)CCC(F)(F)F)cc2C1=O
assay / compound	31	32	33	34	35	36
CAL PDZ FP-2	-26.1	1.4	-1.6	-5.1	·	·
ARNT TACC3 PPI	-7.6	82.9*	20.4	17.6	-1.4	-0.2
Yeast UUG start	-16.8	-20.5	-22.8	-25.4	8.1	-2.1
Vif inh	65.5*	26.5	14.4	55.0*	·	·
CAL PDZ FP-1	-20.3	1.7	-6.0	-8.5	·	·
PglD DTNB	2.0	3.6	0.6	5.1	3.3	-8.9

37	CO[C@H]1CN(C)C(=O)c2ccc(NC(=O)Nc3ccccc3)cc2OC[C@H](C)NC[C@H]1C
38	COc1ccccc1S(=O)(=O)N[C@H]1C=C[C@H](CC(=O)NCc2cc(F)cc(F)c2)O[C@@H]1CO
39	C[C@@H]1CN([C@H](C)CO)C(=O)c2cc(NC(=O)c3ccncc3)ccc2O[C@H]1CN(C)S(=O)(=O)c1cccs1
40	Cc1noc(C)c1S(=O)(=O)Nc1ccc2c(c1)CC(=O)N([C@@H](C)CO)C[C@H](C)[C@H](CN(C)C(=O)Nc1ccc(F)cc1)O2
41	O=C(NC1CCCCC1)[C@H]1N[C@H]2c3ccc(-c4cccc(F)c4)c(=O)n3C[C@H]2[C@@H]1CO
42	Cc1nc(SCc2ccc(Br)cc2)[nH]c(=O)c1C
assay / compound	37	38	39	40	41	42
CAL PDZ FP-2	·	·	·	·	·	-3.2
ARNT TACC3 PPI	2.2	-5.4	-5.3	-4.2	-2.7	·
Yeast UUG start	1.8	10.8	-7.1	4.0	·	20.5
Vif inh	·	·	·	·	·	51.7*
CAL PDZ FP-1	·	·	·	·	·	0.0
PglD DTNB	-2.3	-0.3	2.0	-1.3	1.9	-1.6

# Entries of single compounds, quoted from the list.
# Cc1noc(C)c1S(=O)(=O)Nc1ccc2c(c1)CC(=O)N([C@@H](C)CO)C[C@H](C)[C@H](CN(C)C(=O)Nc1ccc(F)cc1)O2 across the screens: CAL PDZ FP-2: ·; ARNT TACC3 PPI: -4.2; Yeast UUG start: 4.0; Vif inh: ·; CAL PDZ FP-1: ·; PglD DTNB: -1.3
# CO[C@H]1CN(C)C(=O)c2ccc(NC(=O)Nc3ccccc3)cc2OC[C@H](C)NC[C@H]1C across the screens: CAL PDZ FP-2: ·; ARNT TACC3 PPI: 2.2; Yeast UUG start: 1.8; Vif inh: ·; CAL PDZ FP-1: ·; PglD DTNB: -2.3

# (cont.)
43	CCCC#Cc1ccc2c(c1)O[C@@H](CN(C)C(=O)C1CCCCC1)[C@@H](C)CN([C@@H](C)CO)S2(=O)=O
44	CCC(=O)N[C@H]1CC[C@@H](CC(=O)NCCN2CCCCC2)O[C@@H]1CO
45	Oc1[nH]c2ccccc2c1N=Nc1ccccn1
46	Oc1c(N=Nc2ccccn2)ccc2ccccc12
47	C[C@H](CO)N1C[C@H](C)[C@H](CN(C)C)Oc2ncc(-c3cccc(C(F)(F)F)c3)cc2C1=O
assay / compound	43	44	45	46	47
CAL PDZ FP-2	·	·	-1.6	0.4	·
ARNT TACC3 PPI	·	-0.9	0.3	63.8*	-8.3
Yeast UUG start	1.6	0.1	·	·	0.0
Vif inh	·	·	-11.1	3.4	·
CAL PDZ FP-1	·	·	2.8	-2.2	·
PglD DTNB	·	15.8	·	·	2.9

# Screening data deposited in PubChem BioAssay by Broad Institute.
